Columns and labels:
[1] = molecular target: PTPN11-E76K mutant enzyme (Homo sapiens (Human), UniProt Q06124, E76K); experiment: PTPN11 Enzymatic Assay (DiFMUP phosphatase activity); assay type: biochemical; settings: full length PTPN11-E76K mutant enzyme 250 pM, DiFMUP 50 μM, 30 min preincubation
Description: Reaction was initiated by addition of DiFMUP (50 μM) at room temperature in 384-well black plate with a final reaction volume of 20 uL in assay buffer. […] Dose-response curves were analyzed using IC50 regression curve fitting (GeneData Screener). Curves were normalized to a high controls without inhibitor, and low controls without enzyme.

Sequences of proteins named here, by UniProt entry; tags and fusion partners are left off.
UniProt Q06124, whole entry E76K: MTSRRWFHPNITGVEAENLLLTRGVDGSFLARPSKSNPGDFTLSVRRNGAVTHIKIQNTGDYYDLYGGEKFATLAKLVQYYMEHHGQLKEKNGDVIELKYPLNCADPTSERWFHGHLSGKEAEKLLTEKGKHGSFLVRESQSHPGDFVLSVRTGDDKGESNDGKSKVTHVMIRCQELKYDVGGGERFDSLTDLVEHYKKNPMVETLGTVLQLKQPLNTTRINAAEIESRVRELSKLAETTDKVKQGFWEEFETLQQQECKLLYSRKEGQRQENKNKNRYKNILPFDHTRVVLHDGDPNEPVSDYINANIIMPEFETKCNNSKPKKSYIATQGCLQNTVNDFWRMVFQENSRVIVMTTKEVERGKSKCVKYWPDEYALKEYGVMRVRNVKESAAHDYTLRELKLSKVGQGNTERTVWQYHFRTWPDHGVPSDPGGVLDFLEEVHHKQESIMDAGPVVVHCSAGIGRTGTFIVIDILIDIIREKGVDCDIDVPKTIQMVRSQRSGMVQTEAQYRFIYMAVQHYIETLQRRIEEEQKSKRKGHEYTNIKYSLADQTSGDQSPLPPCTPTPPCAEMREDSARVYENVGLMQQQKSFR

[2] = test system: Phospho-ERK levels in KYSE-520 cells; experiment: pERK AlphaScreen Protocol; assay type: cell-based; settings: Homo sapiens, KYSE-520, 2 h, 2 hr compound incubation, phospho-ERK1/2 AlphaScreen SureFire
Description: KYSE-520 cells (10 k cells/well) were grown in 384-well plate in 20 uL of medium (RPMI-1640, without phenol red, containing 10% FBS) at 37° C. with 5% CO2 overnight. DMSO (control) or increasing concentrations of compounds were diluted in medium, added to the 384-well plate (5 uL/well, final DMSO concentration of 1%), and cells were then incubated with compounds for 2 hr. Phospho-ERK levels were measured using phospho-ERK1/2 AlphaScreen SureFire (PerkinElmer, TGRESB10K) following manufacturer's recommendations. Dose-response curves were analyzed using IC50 regression curve fitting (GeneData Screener). Curves were normalized to a high control without inhibitor (DMSO only), and low control (1 μM selumetinib).

N[C@@H]1CCCC12CCN(c1cnc3c(-c4ccncc4Cl)n[nH]c3n1)CC2 [Example 56, (R)-8-(3-(3-chloro-pyridin-4-yl)-1H-pyrazolo[3,4-b]-pyrazin-6-yl)-8-azaspiro[4.5]decan-1-amine] showed an IC50 [1] of 552 nM and an IC50 [2] of 200 nM.

From patent publication US10280171B2, “Heterocyclic inhibitors of PTPN11” (priority 2016, dated 2019)
